Laboratory results taken from patent US20090324489A1 (priority 2005, published 2009).

Assay: Formation of wortmannin from WmC20 conjugates monitored by HPLC
Conditions: for Wortmannin release / formation seen by HPLC (words): PBS pH 6.8, 37° C.; for Wm Generation By HPLC (3 hr, 37° C.): percentage of wortmannin released after three hours in PBS
Protocol: The solutions were incubated in water bath at 37° C. and were analyzed at different time points with HPLC by injecting the solution (10 μL) together with 1 μL internal standard solution (containing 1 μg methyl 4-hydroxybezoate). The initial time point (0 hr) was taken before putting the tube in the water bath. HPLC gradients were adjusted to produce baseline separations. Before the injection, the samples were vortexed briefly and then spun down. Data using this method appear in FIG. 6.
Compounds (1.8 mg) and 4b (1.3 mg) (examples were weighted into the 1.5 mL tubes and dissolved in PBS buffer (pH 6.8, 400 μL). The solutions were incubated at 37° C. At different time point 20 μL solution was mixed with 1 μL internal standard solution in DMSO (containing 1 μg methyl 4-hydroxybenzoate) and analyzed by HPLC. The initial time point (0 hr) was taken before putting the tube in the water bath. Before the injection, the samples were vortexed briefly and then spun down.
The following HPLC methods were employed. HPLC (Varian Prostar 210 with a variable wavelength PDA 330 detector) employed reverse phase C18 columns (VYDAC, Cat.#: 218TP 1022 for synthesis; Varian, Cat. #: R0086200C5 for analysis) with water (Millipore, containing 0.1% trifloroacetic acid,) (buffer A) and acetonitrile (containing 20% buffer A) (buffer B) as elution buffer. System 1: buffer A/buffer B (80:20) isocratic for 5 minutes, linear gradient to buffer A/buffer B (20:80) over 40 minutes, then the gradient back to 80:20 in 5 minutes and isocratic for 5 minutes, flow: 4.9 ml/min, λmax: 418 nm (used for purification of 2a); System 2: buffer A/buffer B (80:20) isocratic for 5 minutes, linear gradient to buffer A (buffer B (20:80) over 25 minutes and then isocratic for 5 minutes, then the gradient back to 80:20 in 5 minutes and isocratic for 5 minutes, flow: 6.0 mi/min, λmax: 408 nm (used for purification of 2b); System 3: buffer A/buffer B (70:30) linear gradient to buffer A/buffer B (20:80) over 15 minutes, then gradient back to 70:30 in 3 minutes and isocratic for another 5 minutes, flow: 1.0 ml/min, λmax: 258 nm (System 4: buffer A/buffer B (99:1) linear gradient to buffer A/buffer B (40:60) over 46 minutes, then gradient back to […] in 5 minutes and isocratic for another 5 minutes, flow: 1.0 ml/min, λmax: 250 nm).

Row | Substance | Wortmannin release / formation seen by HPLC (words) | Wm Generation By HPLC (3 hr, 37° C.) [%] | Wortmannin release / formation seen by HPLC (words) (listed as example 13)
1 | WmC2O-N(Me)-hexanoate-Bead [Example 16] | evident | – | –
2 | WmC20-N(H)-hexanoate-dextran [Example 18] | could not be detected | – | –
3 | WmC20-N(Me)-hexanoate-IgG [Example 14] | evident | 3.5 | –
4 | WmC20-NH-hexanoate-BSA conjugate [Example 13] | could not be detected | – | Slow or undetectable
5 | WmC20-NH-hexanoate-IgG [Example 15] | could not be detected | – | –
6 | Wm-N(Me)Hexanoate-BSA conjugate [Example 12] | evident | 16.5 | –
